Experimental data published in US10280198B2, “Therapeutic agents for reducing parathyroid hormone levels” (KAI PHARMACEUTICALS, INC., priority 2009, dated 2019).
Read-outs that look alike come from different tables or passages of the source. Blank lines part the entries; values can stand above or below the compound they belong to.

Biological target: T1, human calcium-sensing receptor (CaSR) (Homo sapiens, UniProt P41180)
T1 construct: expressed in transfected cells; host or cells: HEK 293T cells, transiently transfected (lipofectamine 2000); in some cases HEK293 cells stably transfected
T1 sequence (P41180 20-1078): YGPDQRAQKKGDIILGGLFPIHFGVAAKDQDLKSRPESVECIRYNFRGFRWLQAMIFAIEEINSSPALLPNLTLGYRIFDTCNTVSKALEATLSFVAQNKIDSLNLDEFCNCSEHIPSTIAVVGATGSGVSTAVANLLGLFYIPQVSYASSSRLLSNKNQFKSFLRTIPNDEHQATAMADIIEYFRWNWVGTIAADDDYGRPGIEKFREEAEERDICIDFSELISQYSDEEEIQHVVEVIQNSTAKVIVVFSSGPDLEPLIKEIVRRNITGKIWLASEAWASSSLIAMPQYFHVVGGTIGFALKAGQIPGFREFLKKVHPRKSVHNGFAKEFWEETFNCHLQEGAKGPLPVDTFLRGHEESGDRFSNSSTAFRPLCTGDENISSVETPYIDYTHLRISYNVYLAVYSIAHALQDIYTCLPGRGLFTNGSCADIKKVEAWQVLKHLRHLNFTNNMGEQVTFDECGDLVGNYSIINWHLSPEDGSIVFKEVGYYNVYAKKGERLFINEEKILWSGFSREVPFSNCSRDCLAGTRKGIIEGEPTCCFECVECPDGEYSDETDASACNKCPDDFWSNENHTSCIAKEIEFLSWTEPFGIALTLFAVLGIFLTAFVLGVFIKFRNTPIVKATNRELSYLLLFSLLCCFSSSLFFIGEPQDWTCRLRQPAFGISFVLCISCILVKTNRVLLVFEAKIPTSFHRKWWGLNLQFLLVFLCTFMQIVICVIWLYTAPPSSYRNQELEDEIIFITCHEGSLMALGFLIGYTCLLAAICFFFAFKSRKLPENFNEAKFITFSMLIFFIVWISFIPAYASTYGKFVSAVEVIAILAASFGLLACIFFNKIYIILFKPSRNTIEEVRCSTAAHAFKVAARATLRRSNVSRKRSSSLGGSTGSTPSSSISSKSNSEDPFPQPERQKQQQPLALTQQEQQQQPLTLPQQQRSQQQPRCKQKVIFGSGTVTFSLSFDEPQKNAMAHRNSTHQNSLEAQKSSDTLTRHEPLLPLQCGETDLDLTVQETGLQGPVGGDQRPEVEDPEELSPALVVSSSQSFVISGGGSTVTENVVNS
Assay: In vitro cell assay in HEK-293 expressing the human calcium-sensing receptor (IP1 production)
Assay type: cell-based
Description: The activity of a variety of peptides and conjugates was tested against the human CaSR. These studies were conducted by measuring IP1 production in HEK293 cells that express the human CaSR. Each peptide was tested in eight different concentrations, in duplicates, to establish a dose response curve. Curve fitting was performed using GraphPad Prism. In Table 5, and throughout the specification, residues provided in capital letters are L-amino acids, while lower case letters indicate D-amino acids. “Ac” indicates an acetyl capping group, “NH2” indicates an amide capping group, “Ac-bAla” is an acetylated beta-alanine, “GSH” indicates reduced glutathione, “GS” indicates oxidized glutathione, “PEG” refers to polyethylene glycol, “PEG2” and “PEGS” refer to polyethylene glycol moieties of 2 kDa and 5 kDa, respectively, and “Mpa” refers to mercaptopropionic acid.
The day after, these cells were transfected with human CaSR receptor using lipofectamine 2000 transfection reagent 24 hrs post transfection, cells were seeded in 384 well plates at 8,000 cells/well. […] In some cases, EC50 values were determined by measuring inositol monophosphate production in the HEK293 cells, stably transfected with the human calcium-sensing receptor (see Table 1).
Cells were incubated with compounds at various concentrations (1 mM or 300 μM as the highest and further ½ log serial dilutions) at 37° C. for 1.5 hrs before reaction termination. […] In brief, incubation with the compound was terminated by sequentially adding D2 labeled-IP1 and cryptate-labeled anti-IP1 in lysis buffer and further incubating at room temperature for 60 minutes. […] Non-transfected 293 cells were used as negative control.
IP1 concentrations were calculated from standard curves (generated with Graph Pad Prism ver. 4) using known concentrations of IP1 standards.

- EC50 (Table 5, IP1 production in HEK293 cells expressing human CaSR, eight concentrations in duplicate, read-out: EC50 in CaSR in vitro assay): 16 µM
Structure (SMILES): CC(=O)N[C@H](CS)C(=O)N[C@H](CCCNC(=N)N)C(=O)N[C@H](CCCNC(=N)N)C(=O)N[C@H](CCCNC(=N)N)C(=O)N[C@H](CCCNC(=N)N)C(N)=O [SEQ ID NO: 4, Ac-crrrr-NH2]

- fold decrease in potency relative to Ac-carrrar-NH2 (SEQ ID NO:26) (human CaSR, HEK293): < 8 fold
Structure (SMILES): CC(=O)N[C@H](CS)C(=O)NCC(=O)N[C@H](CCCNC(=N)N)C(=O)N[C@H](CCCNC(=N)N)C(=O)N[C@H](CCCNC(=N)N)C(=O)NCC(=O)N[C@H](CCCNC(=N)N)C(N)=O [SEQ ID NO: 42, Ac-cGrrrGr-NH2]

Structure (SMILES): N=C(N)NCCC[C@@H](NC(=O)[C@@H](CCCNC(=N)N)NC(=O)[C@@H](CCCNC(=N)N)NC(=O)[C@@H](CCCNC(=N)N)NC(=O)[C@@H](CCCNC(=N)N)NC(=O)[C@@H](CCCNC(=N)N)NC(=O)[C@H](N)CSSC[C@@H](N)C(=O)N[C@H](CCCNC(=N)N)C(=O)N[C@H](CCCNC(=N)N)C(=O)N[C@H](CCCNC(=N)N)C(=O)N[C@H](CCCNC(=N)N)C(=O)N[C@H](CCCNC(=N)N)C(=O)N[C@H](CCCNC(=N)N)C(N)=O)C(N)=O [SEQ ID NO: 51]
- EC50: 0.44 µM
